Results from US10172870B2, “Method of treating organophosphate intoxication by administration of neurosteroids” (dated 2019).

Columns and labels:
[1] = system: GD-induced neuronal injury, neuronal cell death, and neurodegeneration; assay: Soman-induced neuronal injury, neurodegeneration and neuroinflammation (FJB, NeuN, PV, GFAP histology, neurostereology); settings: for acute neuronal injury assessed by FJB-positive cell counts: 40 minutes after soman
[2] = system: pilocarpine model of refractory SE; settings: given 60-min after SE, rats; cited from earlier work
[3] = system: soman-induced SE and seizure activity; assay: Soman-induced OP intoxication, seizures and status epilepticus in rats (behavioral and EEG monitoring, mortality)
[4] = system: VX-induced seizures or status epilepticus; assay: VX-induced OP intoxication, seizures and status epilepticus in rats
[5] = system: soman-induced long-term cognitive neurobehavioral and epileptogenic dysfunction; assay: Soman-induced long-term epileptogenic and memory dysfunction (video-EEG, novel object recognition test)
[6] = system: VX-induced acute neuronal damage; assay: VX-induced acute neuronal injury in hippocampus CA1 (FJB staining); settings: ganaxolone 10 mg/kg im 40 minutes after VX

**Q.** With `CC(=O)[C@H]1CC[C@H]2[C@@H]3CC[C@H]4C[C@H](O)CC[C@]4(C)[C@H]3C(=O)C[C@]12C` as the compound, how does the “acute neuronal injury assessed by FJB-positive cell counts” value (“acute neuronal injury assessed” below) ([1]; neurosteroid 10 mg/kg im) read?
**A.** significantly prevented

**Q.** For `C[C@]12CC[C@@H](O)C[C@@H]1CC[C@@H]1[C@@H]2CC[C@]2(C)[C@@H](O)CC[C@@H]12`, which “acute neuronal injury assessed” value ([1]; neurosteroid 100 mg/kg im) is on record?
**A.** significantly prevented

**Q.** Which results are given for 5α-pregnane-3α,21-diol-20-one?
**A.** termination of SE [2]: rapid and complete termination of SE; acute neuronal injury assessed by FJB-positive cell counts ([1]; neurosteroid 10 mg/kg im): significantly prevented

**Q.** Which “acute neuronal injury assessed” value ([1]; neurosteroid 10 mg/kg im) does the source give for `CC(=O)[C@H]1CC[C@H]2[C@@H]3CC[C@H]4C[C@H](O)CC[C@]4(C)[C@H]3CC[C@]12C` here?
**A.** significantly prevented

**Q.** For `CC(=O)[C@H]1CC[C@H]2[C@@H]3CC[C@H]4C[C@](C)(O)CC[C@]4(C)[C@H]3CC[C@]12C`, which “time after treatment within which electrographic and behavioral activity was effectively controlled” value ([3]; ganaxolone 10 mg/kg im given 40 min, 60 min or 120 min after soman, rats) is on record?
**A.** 40 to 60 min

**Q.** And the “time after treatment within which electrographic and behavioral activity was effectively controlled” value ([4]; ganaxolone 10 mg/kg im at 40 min after VX, rats)?
**A.** 40 to 60 min

**Q.** What about the survival rate ([4]; ganaxolone 10 mg/kg im, 40 minute post-exposure to VX) of the same compound?
**A.** improved survival rate

**Q.** What about the “memory impairment in the NORT” value ([5]; 3 months post-exposure to soman, ganaxolone-treated group) of the same compound?
**A.** attenuated

**Q.** What about the “occurrence of epilepsy development (spontaneous seizures, video-EEG)” value ([5]; ganaxolone 6 & 10 mg/kg im, 1 to 3 months post-soman, control up to 75% animals with spontaneous seizures) of the same compound?
**A.** significantly prevented

**Q.** And the “EEG seizure intensity compared to soman control” value ([5]; ganaxolone 6 & 10 mg/kg im, post-soman)?
**A.** reduced

**Q.** And the “fractional cell death assessed by FJB(+) staining and unbiased quantitative stereology” value [6]?
**A.** significantly reduced

**Q.** What about the “acute neuronal injury assessed” value ([6]; 24 h post-VX) of the same compound?
**A.** significantly prevented

**Q.** And the “decrease of cell death of interneurons assessed by parvalbumin (PV) staining” value ([1]; ganaxolone 10 mg/kg im, 40 min or later after soman)?
**A.** > 85%

**Q.** And the “neuroinflammation assessed by GFAP-positive staining” value ([1]; ganaxolone 10 mg/kg im, 40 min post-GD)?
**A.** significantly reduced

**Q.** Which “protection against soman-induced seizures” value ([3]; midazolam alone 2 mg/kg im at 40-min post-soman) does the source give for `Cc1ncc2n1-c1ccc(Cl)cc1C(c1ccccc1F)=NC2` here?
**A.** failed to protect
